Source: PMC8810934

Biological target: F-actin from rabbit muscle (rabbit) (UniProt P68135)
Test: co-sedimentation; 2 µM ABD with F-actin (3–160 µM), 30 min at room temperature in F-buffer (10 mM Tris pH 7.5, 150 mM NaCl, 0.5 mM ATP, 2 mM MgCl2, 1 mM DTT); spun at 50,000 RPM, 30 min, 25 °C; unbound ABD in the supernatant quantified from Coomassie gels; one site specific binding fit with Bmax constrained to 1

Substance | Kd [µM]
N-terminally truncated human β-III-spectrin ABD with L253P mutation (from UniProt O15020 52-2390) (domain or fragment) | 234
wild-type human β-III-spectrin actin-binding domain (ABD) with intact N-terminus (domain or fragment) | 73.6
